Publication PMC11151825 (RSC Chemical Biology, 2024)

Amino acid sequences for entries named in this document (tags omitted). A change or cut given only in a name is not applied to a line headed by its entry.
UniProt P30874: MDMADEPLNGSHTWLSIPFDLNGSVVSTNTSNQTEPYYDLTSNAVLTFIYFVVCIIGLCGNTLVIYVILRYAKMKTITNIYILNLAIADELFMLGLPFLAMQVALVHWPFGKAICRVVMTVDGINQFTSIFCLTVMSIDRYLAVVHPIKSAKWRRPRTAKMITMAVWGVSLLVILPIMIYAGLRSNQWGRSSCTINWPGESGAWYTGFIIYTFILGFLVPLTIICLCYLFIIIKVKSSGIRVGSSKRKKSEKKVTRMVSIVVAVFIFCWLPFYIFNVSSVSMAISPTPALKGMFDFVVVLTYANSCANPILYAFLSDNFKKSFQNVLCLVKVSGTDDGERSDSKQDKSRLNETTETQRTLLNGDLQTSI

Target: somatostatin receptor 2 (SST2R) (Homo sapiens, UniProt P30874)
Assay: PRESTO-Tango assay on cells expressing SST2R

Structure (SMILES): CC(C)[C@@H]1NC(=O)[C@@H]2CSSC[C@@H]3NC(=O)[C@H]([C@@H](C)O)NC(=O)[C@@H]4CSSC[C@H](NC(=O)[C@H](C(C)C)NC(=O)[C@H]([C@@H](C)O)NC(=O)[C@@H]5CSSC[C@H](NC(=O)[C@@H](Cc6ccccc6)NC(=O)[C@H]([C@@H](C)O)NC(=O)[C@H](CSSC[C@H](NC(=O)[C@H]([C@@H](C)O)NC(=O)CNC(=O)CNC1=O)C(=O)N[C@@H](CC(N)=O)C(=O)N[C@@H]([C@@H](C)O)C(=O)N1CCC[C@H]1C(=O)NCC(=O)N4)NC(=O)[C@H](C(C)C)NC(=O)[C@@H]1CCCN1C(=O)[C@H](Cc1c[nH]c4ccccc14)NC(=O)[C@H](CO)NC3=O)C(=O)N[C@@H](Cc1ccccc1)C(=O)N[C@H](Cc1c[nH]c3ccccc13)C(=O)N[C@@H](CCCCN)C(=O)N[C@@H]([C@@H](C)O)C(=O)N5)C(=O)NCC(=O)N[C@@H](CCC(N)=O)C(=O)N[C@@H]([C@@H](C)O)C(=O)N2
- Emax compared to octreotide (HTLA cells transfected with SST2R, 24 h stimulation, mean ± SEM, n=3): 82.1 ± 14.2%
- EC50 (read-out: EC50 (agonist activity), HTLA cells transfected with SST2R, 24 h stimulation, luminescence, mean ± SEM, n=3): 1.5 µM
